Target: Recombinant HssAChE (Homo sapiens, UniProt P22303)
Type: biochemical
Conditions: pH 7.4; read-out: HssAChE IC50 ± SD

Chains of the proteins cited; added tags and fusions are not shown. Residues count along the entry.
UniProt P22303, 32-614: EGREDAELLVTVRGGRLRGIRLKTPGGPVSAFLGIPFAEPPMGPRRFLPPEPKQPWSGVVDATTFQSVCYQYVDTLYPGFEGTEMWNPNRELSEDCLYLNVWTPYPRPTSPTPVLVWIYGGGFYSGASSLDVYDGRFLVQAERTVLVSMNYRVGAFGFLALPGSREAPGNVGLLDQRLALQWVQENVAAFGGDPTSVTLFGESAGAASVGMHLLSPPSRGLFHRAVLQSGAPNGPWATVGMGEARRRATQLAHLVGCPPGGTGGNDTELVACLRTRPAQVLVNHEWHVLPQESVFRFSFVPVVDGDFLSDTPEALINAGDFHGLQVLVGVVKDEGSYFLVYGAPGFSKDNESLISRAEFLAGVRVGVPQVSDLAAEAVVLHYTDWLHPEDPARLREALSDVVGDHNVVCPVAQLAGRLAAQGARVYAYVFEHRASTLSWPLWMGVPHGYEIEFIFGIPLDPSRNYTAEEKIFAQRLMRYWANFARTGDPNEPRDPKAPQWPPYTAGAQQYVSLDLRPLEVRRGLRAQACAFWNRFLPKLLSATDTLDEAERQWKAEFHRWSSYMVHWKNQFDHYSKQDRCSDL

## C[n+]1ccccc1/C=N/O [Compound 1, pralidoxime, reference compound]
  IC50: 878 ± 171 µM
